In article PMC4042406 (British journal of haematology, 2011):
“Also recorded” adds a separate entry of the source.

By UniProt entry, the sequences of proteins in these tests, tags left out. Where a name states a change or a piece, a line headed by the entry shows the natural chain unless it says otherwise.
UniProt P06493, whole entry: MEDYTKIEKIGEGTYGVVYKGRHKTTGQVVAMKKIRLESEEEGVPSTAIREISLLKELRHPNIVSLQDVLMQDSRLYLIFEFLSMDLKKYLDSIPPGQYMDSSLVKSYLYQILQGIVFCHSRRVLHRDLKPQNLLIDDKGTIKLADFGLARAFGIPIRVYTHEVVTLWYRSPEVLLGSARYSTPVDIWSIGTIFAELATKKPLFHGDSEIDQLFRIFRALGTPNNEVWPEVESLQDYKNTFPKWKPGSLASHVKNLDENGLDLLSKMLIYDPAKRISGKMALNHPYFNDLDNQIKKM
UniProt Q00526: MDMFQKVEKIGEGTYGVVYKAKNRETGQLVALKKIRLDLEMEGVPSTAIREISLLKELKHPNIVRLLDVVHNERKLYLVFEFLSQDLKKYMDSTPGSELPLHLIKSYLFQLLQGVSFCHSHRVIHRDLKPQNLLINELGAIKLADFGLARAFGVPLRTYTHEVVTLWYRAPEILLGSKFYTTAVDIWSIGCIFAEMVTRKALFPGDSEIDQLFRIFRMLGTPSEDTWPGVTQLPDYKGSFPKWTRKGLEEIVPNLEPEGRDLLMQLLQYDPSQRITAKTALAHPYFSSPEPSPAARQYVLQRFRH
UniProt Q00535, whole entry: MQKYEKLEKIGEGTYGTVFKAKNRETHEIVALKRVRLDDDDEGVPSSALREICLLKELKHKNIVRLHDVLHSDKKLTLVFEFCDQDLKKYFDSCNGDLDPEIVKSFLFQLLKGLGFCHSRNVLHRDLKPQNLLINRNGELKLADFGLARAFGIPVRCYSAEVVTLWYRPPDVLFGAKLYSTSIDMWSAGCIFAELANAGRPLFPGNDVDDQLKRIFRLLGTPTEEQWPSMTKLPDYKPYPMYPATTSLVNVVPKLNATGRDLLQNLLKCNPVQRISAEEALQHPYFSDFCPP
UniProt Q00534, whole entry: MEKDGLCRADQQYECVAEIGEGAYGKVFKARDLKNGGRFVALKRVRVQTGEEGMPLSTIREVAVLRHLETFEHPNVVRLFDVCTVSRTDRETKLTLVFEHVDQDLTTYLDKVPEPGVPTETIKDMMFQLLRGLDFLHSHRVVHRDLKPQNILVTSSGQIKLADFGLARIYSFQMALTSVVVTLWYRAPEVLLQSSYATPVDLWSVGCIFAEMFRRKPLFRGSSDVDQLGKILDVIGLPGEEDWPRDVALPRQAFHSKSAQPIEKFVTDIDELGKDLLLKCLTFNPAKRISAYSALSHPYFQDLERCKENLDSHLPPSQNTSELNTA
UniProt P50750, whole entry: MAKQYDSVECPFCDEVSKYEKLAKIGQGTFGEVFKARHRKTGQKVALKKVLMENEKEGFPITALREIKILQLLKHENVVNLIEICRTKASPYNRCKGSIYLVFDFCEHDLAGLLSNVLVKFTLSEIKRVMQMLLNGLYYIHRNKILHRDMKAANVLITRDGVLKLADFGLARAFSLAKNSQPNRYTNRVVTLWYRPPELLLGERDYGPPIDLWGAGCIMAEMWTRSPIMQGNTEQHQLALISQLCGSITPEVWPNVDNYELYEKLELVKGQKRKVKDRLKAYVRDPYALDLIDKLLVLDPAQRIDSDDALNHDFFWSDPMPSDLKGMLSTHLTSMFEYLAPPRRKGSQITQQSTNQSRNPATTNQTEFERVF
UniProt P50613: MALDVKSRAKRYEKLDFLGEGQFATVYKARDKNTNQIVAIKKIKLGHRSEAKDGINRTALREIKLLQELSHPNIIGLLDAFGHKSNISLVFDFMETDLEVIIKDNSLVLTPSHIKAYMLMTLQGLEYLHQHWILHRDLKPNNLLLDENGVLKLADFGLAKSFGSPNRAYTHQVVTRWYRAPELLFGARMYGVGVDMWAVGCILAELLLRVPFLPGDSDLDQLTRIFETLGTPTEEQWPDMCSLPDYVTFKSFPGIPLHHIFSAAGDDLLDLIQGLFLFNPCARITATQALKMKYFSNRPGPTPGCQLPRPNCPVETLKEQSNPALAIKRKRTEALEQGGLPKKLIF

What was measured:
CDK1/cyclin B = CDK1/cyclin B (Homo sapiens, UniProt P06493); assay: Millipore KinaseProfilerXL kinase activity, dose titration; assay type: biochemical; settings: 5-log dose titration 0.001-10μM
CDK3/cyclin E = CDK3/cyclin E (Homo sapiens, UniProt Q00526); assay: as above; assay type: biochemical; settings: 5-log dose titration 0.001-10μM
CDK5/p25 = CDK5/p25 (Homo sapiens, UniProt Q00535); assay: as above; assay type: biochemical; settings: 5-log dose titration 0.001-10μM
CDK5/p35 = CDK5/p35 (Homo sapiens, UniProt Q00535); assay: as above; assay type: biochemical; settings: 5-log dose titration 0.001-10μM
CDK6/cyclin D3 = CDK6/cyclin D3 (Homo sapiens, UniProt Q00534); assay: as above; assay type: biochemical; settings: 5-log dose titration 0.001-10μM
CDK9/cyclin T1 = CDK9/cyclin T1 (Homo sapiens, UniProt P50750); assay: as above; assay type: biochemical; settings: 5-log dose titration 0.001-10μM
CDK7/cyclin H = CDK7/cyclin H (Homo sapiens, UniProt P50613); assay: as above; assay type: biochemical; settings: 5-log dose titration 0.001-10μM
MM.1S cells = assay: Cell death commitment assay; assay type: cell-based, human; settings: 0.5 μM, 2-24 hrs, washout, additional 72 hrs drug-free

CS(=O)(=O)N1CCC(NC(=O)c2[nH]ncc2NC(=O)c2c(Cl)cccc2Cl)CC1 [LCQ195]
in vitro kinase activity in dose titration (CDK1/cyclin B): active at sub-μM concentrations
in vitro kinase activity in dose titration (CDK3/cyclin E): active, although with higher IC50 values; also recorded: active at sub-μM concentrations
in vitro kinase activity in dose titration (CDK5/p25): active at sub-μM concentrations
in vitro kinase activity in dose titration (CDK5/p35): active at sub-μM concentrations
in vitro kinase activity in dose titration (CDK6/cyclin D3): active, although with higher IC50 values; also recorded: active at sub-μM concentrations
in vitro kinase activity in dose titration (CDK9/cyclin T1): active, although with higher IC50 values; also recorded: active at sub-μM concentrations
in vitro kinase activity in dose titration (CDK7/cyclin H): active, although with higher IC50 values
duration of treatment resulting in commitment to death (MM.1S cells): < 24 h
